# PubChem BioAssay AID2528 (National Center for Advancing Translational Sciences (NCATS), 2010)
# Protein sequences, listed by entry. Tags and fused reporters are not part of them.
# UniProt P54132, whole entry: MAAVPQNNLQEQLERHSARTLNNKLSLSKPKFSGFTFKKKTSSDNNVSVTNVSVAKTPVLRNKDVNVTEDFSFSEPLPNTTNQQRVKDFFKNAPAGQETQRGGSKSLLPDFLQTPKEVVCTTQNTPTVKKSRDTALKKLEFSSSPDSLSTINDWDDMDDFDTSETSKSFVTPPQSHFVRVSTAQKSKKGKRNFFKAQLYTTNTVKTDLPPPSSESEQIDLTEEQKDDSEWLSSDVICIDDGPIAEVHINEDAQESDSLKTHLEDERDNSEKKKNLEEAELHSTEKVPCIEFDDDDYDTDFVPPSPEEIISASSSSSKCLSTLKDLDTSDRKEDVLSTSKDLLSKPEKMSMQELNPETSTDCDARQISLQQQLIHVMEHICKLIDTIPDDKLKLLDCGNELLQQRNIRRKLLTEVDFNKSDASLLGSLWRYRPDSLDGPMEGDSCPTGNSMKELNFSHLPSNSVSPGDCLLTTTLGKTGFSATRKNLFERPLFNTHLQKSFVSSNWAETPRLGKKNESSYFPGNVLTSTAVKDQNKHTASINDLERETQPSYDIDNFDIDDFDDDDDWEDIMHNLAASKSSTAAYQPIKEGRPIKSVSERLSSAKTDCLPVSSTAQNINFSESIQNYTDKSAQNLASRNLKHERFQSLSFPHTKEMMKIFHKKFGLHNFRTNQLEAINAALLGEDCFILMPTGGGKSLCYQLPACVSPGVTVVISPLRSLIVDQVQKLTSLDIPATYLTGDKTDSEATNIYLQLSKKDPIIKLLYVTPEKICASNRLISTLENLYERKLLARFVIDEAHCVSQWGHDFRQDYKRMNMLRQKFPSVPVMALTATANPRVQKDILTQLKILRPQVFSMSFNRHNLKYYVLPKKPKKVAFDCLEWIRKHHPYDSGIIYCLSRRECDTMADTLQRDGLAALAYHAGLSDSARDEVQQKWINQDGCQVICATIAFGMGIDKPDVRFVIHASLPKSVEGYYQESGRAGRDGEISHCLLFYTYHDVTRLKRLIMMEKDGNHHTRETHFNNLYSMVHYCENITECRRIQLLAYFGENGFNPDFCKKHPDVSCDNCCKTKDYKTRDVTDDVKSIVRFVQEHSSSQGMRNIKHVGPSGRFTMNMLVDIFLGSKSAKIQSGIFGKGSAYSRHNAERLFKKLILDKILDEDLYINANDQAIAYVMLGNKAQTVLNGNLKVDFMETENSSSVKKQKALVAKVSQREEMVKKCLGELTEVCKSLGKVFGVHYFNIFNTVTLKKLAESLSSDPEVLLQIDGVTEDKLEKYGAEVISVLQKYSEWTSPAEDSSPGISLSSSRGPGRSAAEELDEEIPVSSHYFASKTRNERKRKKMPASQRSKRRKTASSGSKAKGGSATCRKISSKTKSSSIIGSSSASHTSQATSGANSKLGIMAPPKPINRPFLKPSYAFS
# Only a part is listed here, and it is no random draw. Some salts or complexes appear as unconnected parts, following the source record. Active and inactive are the calls of the source. The call rests on the fitted dose curve; in most records, active means well fitted inhibition curve with a large enough effect; inconclusive means small, poorly fitted or top-dose-only effect; inactive means flat fitted curve, though single readings scatter.
# Biological target: RecQ-like DNA helicase BLM (Homo sapiens) (UniProt P54132)
# Experiment: qHTS Assay for Inhibitors of Bloom's syndrome helicase (BLM);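 further: plate controls were vehicle for no effect and no enzyme for full effect; nearly all actives have a fitted effect of over 35% in size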
# Settings: recombinant BLM DNA unwinding, fluorescence dequenching; at 56.1 µM (top of the series)
row,SMILES,"activity change, negative = inhibition"
1,O=C(NCC1(N2CCCCC2)CCCCC1)c1ccc(OC(F)F)cc1,inactive: 1.63%
2,O=C(NCC1(N2CCCCC2)CCCCC1)c1cccc([N+](=O)[O-])c1,inactive: 0.367%
3,CCOc1ccc(C(=O)NCC2(N3CCOCC3)CCCCC2)cc1,inactive: -1.41%
4,N#CC1(Nc2ccccc2)CCN(CCc2ccccc2)CC1,inactive: -4.34%
5,CCN1CCC(Nc2ccc(Cl)cc2)CC1,inactive: -0.729%
6,O=C(NCC1(N2CCCCC2)CCCCC1)c1cccc(C(F)(F)F)c1,inactive: -2.49%
7,CCCOc1cccc(C(=O)NCC2(N3CCOCC3)CCCCC2)c1,inactive: -0.787%
8,O=[N+]([O-])c1cc([N+](=O)[O-])c(NCC2CCS(=O)(=O)C2)c([N+](=O)[O-])c1 (stereo not drawn),inactive: -19%
9,COc1ccc(NC2CCN(C(=O)OC(C)(C)C)CC2)cc1,inactive: -3.39%
10,CN1CCN(CCOC(=O)C(O)(c2ccccc2)c2ccccc2)CC1,inactive: 1.26%
11,O=C(NCC1(N2CCOCC2)CCCCC1)c1cc(=O)[nH]c2ccccc12,inactive: -0.957%
12,COc1cc(C(=O)NCC2(N3CCCCC3)CCCCC2)ccc1OC(F)F,inactive: 0.429%
13,CN(C)c1cccc(C(=O)NCC2(N3CCCCC3)CCCCC2)c1,inactive: 2.8%
14,O=[N+]([O-])c1cc([N+](=O)[O-])c(OC2CCCCC2O)c([N+](=O)[O-])c1 (stereo not drawn),inactive: -3.74%
15,COc1ccc(CN(CCCl)CCCl)cc1Cl,inactive: -0.12%
16,CC(C)c1ccc(NC2CCN(C(=O)OC(C)(C)C)CC2)cc1,inactive: -8.33%
17,COc1cc(OC)c(C(=O)NCC2(N(C)C)CCCCC2)cc1OC,inactive: -12.9%
18,COc1ccc2c(c1O)-c1c(O)c(OC)cc3c1[C@H](C2)[N+](C)(C)CC3.O=[N+]([O-])c1cc([N+](=O)[O-])c([O-])c([N+](=O)[O-])c1[O-],inactive: -6.81%
19,O=C(OC1CN2CCC1CC2)c1ccc([N+](=O)[O-])cc1 (stereo not drawn),inactive: -6.49%
20,CCCOc1ccc(C(=O)NCC2(N(C)C)CCCCC2)cc1OC,inactive: 1.11%
21,O=C(NCC1(N2CCOCC2)CCCCC1)c1ccccc1Br,inactive: 1.43%
22,CCCCOc1ccccc1C(=O)NCC1(N2CCOCC2)CCCCC1,inactive: -0.643%
23,O=C(NCC1(N2CCCCC2)CCCCC1)c1ccc(=O)[nH]c1,inactive: 0.634%
24,CC(C)(C)OC(=O)N1CCC(N(C(=O)c2ccccc2)c2ccc(F)cc2)CC1,inactive: -4.01%
25,COc1ccc(C(=O)NCC2(N3CCCCC3)CCCCC2)c(OC)c1OC,inactive: -2.23%

row,SMILES,"activity change, negative = inhibition"
1,COc1ccc(C(=O)NCC2(N3CCCCC3)CCCCC2)cc1,inactive: 4.83%
2,CSc1ccccc1C(=O)NCC1(N2CCCCC2)CCCCC1,inactive: 4.47%
3,O=C(NCC1(N2CCOCC2)CCCCC1)c1cc2ccccc2o1,inactive: -4.18%
4,Cc1cc(C)cc(N(C(=O)c2ccccc2)C2CCN(C(=O)OC(C)(C)C)CC2)c1,inactive: -9.42%
5,CCOC(=O)N1CCC(Nc2ccc(OC)cc2)CC1,inactive: -1.63%
6,O=C(OC1CN2CCC1CC2)C1c2ccccc2Oc2ccccc21 (stereo not drawn),inactive: 3.09%
7,N#CC1(Nc2ccccc2)CCN(Cc2ccccc2)CC1,inactive: -0.419%
8,CCOc1ccc(C)cc1CN(CCCl)CCCl,inactive: 3.9%
9,O=C(NCC1(N2CCOCC2)CCCCC1)c1ccc(Cl)cc1,inactive: -3.47%
10,CCOC(=O)N1CCC(Nc2ccc(F)cc2)CC1,inactive: -0.833%
11,COc1ccc(NC2CCN(CCc3ccccc3)CC2)c(OC)c1,inactive: -2.13%
12,O=C(NCC1(N2CCCCC2)CCCCC1)c1ccc(F)cc1,inactive: 1.98%
13,COc1ccccc1C(=O)NCC1(N2CCOCC2)CCCCC1,inactive: 0.739%
14,Cc1ccc(OCC(C)C)c(CN(CCCl)CCCl)c1,inactive: 1.03%
15,COc1cc(C(=O)NCC2(N(C)C)CCCCC2)ccc1OC(F)F,inactive: -3.69%
16,CCOC(=O)N1CCC(Nc2cccc(C)c2)CC1,inactive: -4.63%
17,COc1cc(OC)cc(C(=O)NCC2(N3CCCCC3)CCCCC2)c1,inactive: 3.19%
18,CN(C)C1(CNC(=O)c2ccc(C(C)(C)C)cc2)CCCCC1,inactive: 1.58%
19,Fc1ccccc1NC1CCN(Cc2ccccc2)CC1,inactive: -5.95%
20,CCN1CCC(Nc2cccc(F)c2)CC1,inactive: 4.53%
21,CN(C)c1ccc(C(=O)NCC2(N3CCCCC3)CCCCC2)cc1,inactive: 1.22%
22,CC(C)(C)c1ccc(C(=O)NCC2(N3CCOCC3)CCCCC2)cc1,inactive: -6.19%
23,Cc1ccccc1C(=O)NCC1(N(C)C)CCCCC1,inactive: 1.8%
24,CN1CCC(Nc2ccc(F)c(Cl)c2)CC1,inactive: -1.58%
25,CCOc1ncccc1C(=O)NCC1(N2CCOCC2)CCCCC1,inactive: -1.68%

row,SMILES,"activity change, negative = inhibition"
1,CCCOc1ccc(C(=O)NCC2(N(C)C)CCCCC2)cc1,inactive: 3.07%
2,O=C(O)C1(Nc2ccccc2)CCN(Cc2ccccc2)CC1,inactive: 0.637%
3,CC(C)(C)OC(=O)N1CCC(Nc2ccccc2)CC1,inactive: -4.45%
4,CCC(CO)(C(=O)OC1CN2CCC1CC2)c1ccccc1 (stereo not drawn),inactive: 1.08%
5,COc1cccc(C(=O)N(c2cc(C)cc(C)c2)C2CCN(C(=O)OC(C)(C)C)CC2)c1,inactive: -14%
6,COc1cc(OC)cc(C(=O)NCC2(N3CCOCC3)CCCCC2)c1,inactive: 0.569%
7,COc1cc(C(=O)NCC2(N3CCOCC3)CCCCC2)cc(OC)c1OC,inactive: -2.73%
8,CCCOc1ccc(C)cc1CN(CCCl)CCCl,inactive: 3.34%
9,CN1CCC(Nc2ccc(Cl)cc2)CC1,inactive: 2.21%
10,COc1ccc(C(=O)NCC2(N3CCOCC3)CCCCC2)cc1OC,inactive: -0.632%
11,N/C(=N\O)c1c(N)no[n+]1[O-],inactive: -3.32%
12,CCOC(=O)N1CCC(Nc2ccc(C)cc2)CC1,inactive: -0.311%
13,O=C(O)c1cccc(Nc2c([N+](=O)[O-])cc([N+](=O)[O-])cc2[N+](=O)[O-])c1,inactive: -7.3%
14,O=C(OC1CN2CCC1CC2)C1c2ccccc2C=Cc2ccccc21 (stereo not drawn),inactive: 5.36%
15,O=C(NCC1(N2CCOCC2)CCCCC1)c1ccc([N+](=O)[O-])cc1,inactive: -1.22%
16,CC(C)(C)OC(=O)N1CCC(N(C(=O)c2ccccc2)c2ccc(Cl)cc2)CC1,inactive: -8.21%
17,O=C(NCC1(N2CCOCC2)CCCCC1)c1ccccc1[N+](=O)[O-],inactive: -1.42%
18,N#Cc1ccc(C(=O)NCC2(N3CCCCC3)CCCCC2)cc1,inactive: 3.46%
19,CCOC(=O)C(CC)C1=NC(C)(C)Cc2ccccc21.O=[N+]([O-])c1cc([N+](=O)[O-])c(O)c([N+](=O)[O-])c1 (stereo not drawn),inactive: -4.5%
20,O=C(NCC1(N2CCOCC2)CCCCC1)c1ccccc1,inactive: -1.7%
21,CCCN1CCC(Nc2cc(OC)cc(OC)c2)CC1,inactive: 2.38%
22,c1ccc(CN2CCC(Nc3ccccc3)CC2)cc1,inactive: -0.522%
23,CN(C)C1(CNC(=O)c2cccc(C#N)c2)CCCCC1,inactive: -4.23%
